# Test results: ChEMBL document CHEMBL4513141, “CO-ADD screening of NIH (USA) - Clinical Collection” (2021)
# For part of these data: What follows is the remainder of the data, with few or none of the strong results. Results with a measured potency or affinity are listed apart. This is a selection; strong and weak results do not stand in their true shares.
# What was measured:
# Settings in all cases: Concentration 20 uM; ASSAY_TEST Inhibition of Bacterial Growth; detection method Absorption (OD600); MEDIA CAMHB; plate type 384well; NBS; CORNING #3640; time 18 hr
# [1] = system: Staphylococcus aureus
# [2] = system: Escherichia coli
# [3] = system: Acinetobacter baumannii
structure (smiles),measurement,setting,value
COc1ccc(C[C@H](C)NC[C@@H](O)c2ccc(O)c(NC=O)c2)cc1.O.O.O=C(O)/C=C/C(=O)O,Inhibition,[1],7.68%
same,Inhibition,[2],5.98%
same,Inhibition,[3],20.06%
